Literature values, collected in patent US20180200259A1 (priority 2015, published 2018).

Test system: Alzheimer patients
Details: cited from earlier work

Bapineuzumab: an antibody to the N-terminus of Aβ
fraction of patients with ARIA (ApoE4+ homozygotes): About ⅓ | occurrence of ARIA (ApoE4+ patients at low dose, and ApoE4− patients at high dose): about 20%
